Key:
[1] = molecular target: T1, Opioid receptors; mu/kappa/delta (Homo sapiens) (UniProt P41145+P41143+P35372); experiment: Displacement of [3H]naloxone from opioid receptor (unknown origin) relative to nalorphine
[2] = molecular target: T1, Opioid receptors; mu/kappa/delta (Homo sapiens); experiment: Displacement of [3H]naloxone from opioid receptor (unknown origin) relative to morphine

Compound	fold change (FC) [1]	fold change (FC) [2]
CCC[C@@](C)(O)C1C[C@@]23C=C[C@]1(OC)[C@@H]1Oc4c(O)ccc5c4[C@@]12CCN(CC1CC1)[C@@H]3C5 (stereo partly drawn)	0.3	1000
C=CCN1CC[C@]23c4c5ccc(O)c4O[C@H]2[C@@]2(OC)C=C[C@@]3(CC2[C@](C)(O)CCC)[C@H]1C5 (stereo partly drawn)	–	60
